Test results from patent US20250101052A1, “COMPOUND FOR EGFR KINASE INHIBITOR, COMPOSITION, AND USE THEREOF” (INNOVATION INSTITUTE FOR ARTIFICIAL INTELLIGENCE IN …, priority 2021, published 2025).

Protein sequences, listed by entry. Tags and fused reporters are not part of them. Residues count along the entry.
UniProt P00533, 25-1210 T790M/C797S/L858R limits assumed: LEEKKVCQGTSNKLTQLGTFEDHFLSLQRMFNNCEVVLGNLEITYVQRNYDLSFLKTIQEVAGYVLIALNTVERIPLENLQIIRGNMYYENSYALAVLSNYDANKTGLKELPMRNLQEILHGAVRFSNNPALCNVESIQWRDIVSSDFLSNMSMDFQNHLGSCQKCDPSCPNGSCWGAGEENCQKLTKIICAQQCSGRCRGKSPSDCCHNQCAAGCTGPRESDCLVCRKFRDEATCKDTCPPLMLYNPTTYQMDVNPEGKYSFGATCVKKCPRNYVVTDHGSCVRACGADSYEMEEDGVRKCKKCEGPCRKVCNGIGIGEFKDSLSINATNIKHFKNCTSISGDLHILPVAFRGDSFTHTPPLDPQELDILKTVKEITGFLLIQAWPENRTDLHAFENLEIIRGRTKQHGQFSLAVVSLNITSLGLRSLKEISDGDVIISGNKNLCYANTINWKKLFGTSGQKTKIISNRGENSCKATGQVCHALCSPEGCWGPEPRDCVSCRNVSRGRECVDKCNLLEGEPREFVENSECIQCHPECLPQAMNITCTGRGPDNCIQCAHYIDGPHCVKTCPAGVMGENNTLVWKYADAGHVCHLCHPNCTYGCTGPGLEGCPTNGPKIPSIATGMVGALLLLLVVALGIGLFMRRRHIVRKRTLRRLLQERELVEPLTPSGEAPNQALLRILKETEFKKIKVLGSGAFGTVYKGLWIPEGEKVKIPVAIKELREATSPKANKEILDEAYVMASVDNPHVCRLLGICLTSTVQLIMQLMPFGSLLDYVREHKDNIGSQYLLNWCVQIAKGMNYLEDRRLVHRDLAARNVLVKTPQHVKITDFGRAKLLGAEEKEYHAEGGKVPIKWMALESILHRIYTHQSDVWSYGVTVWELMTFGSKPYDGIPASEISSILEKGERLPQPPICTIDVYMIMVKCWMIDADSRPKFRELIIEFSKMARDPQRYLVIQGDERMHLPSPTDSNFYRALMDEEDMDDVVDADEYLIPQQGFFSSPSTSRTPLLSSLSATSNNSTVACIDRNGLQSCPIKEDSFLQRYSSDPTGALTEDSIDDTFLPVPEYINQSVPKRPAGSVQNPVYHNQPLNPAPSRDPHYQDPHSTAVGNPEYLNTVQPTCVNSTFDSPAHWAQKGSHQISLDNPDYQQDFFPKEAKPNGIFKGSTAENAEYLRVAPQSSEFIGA

Target: EGFR^L858R/T790M/C797S kinase (Homo sapiens (Human), UniProt P00533, C797S/L858R/T790M)
Assay: EGFR^L858R/T790M/C797S kinase inhibitory activity experiment
Conditions: read-out: EGFR^L858R/T790M/C797S (IC50 NM), in vitro
Description: EGFRL^858R/T790M/C797S kinase inhibitory activity experiment: The compounds of the present invention have excellent in-vitro inhibitory activity against EGFR^L858R/T790M/C797S kinase
• Centrifuge (manufacturer: Eppendorf, model: 5430) • Microplate reader (manufacturer: Perkin Elmer, model: Caliper EZ ReaderII) • Echo 550 (manufacturer: Labcyte, model: Echo 550) • Experimental Method • Compound preparation: • A 10 mM storage solution was prepared.
(1) 1×Kinase buffer was prepared.
(2) Preparation of concentration gradient of compound: The tested compound has a test concentration starting from 1 μM, diluted 10 times, with 10 concentrations, and subjected to single-well or multi-well detection. The compound was diluted to a 100% DMSO solution with a final concentration of 100 times in a 384 source plate. […]
(10) The conversion rate was read using Caliper EZ Reader.
where Conversion %_sample is the conversion rate reading of the sample; Conversion %_min: the average value of negative control wells, representing the conversion rate reading of wells without enzyme activity; Conversion %_max: the average value of positive control wells, representing the conversion rate reading of wells without compound inhibition; % Inhibition represents the inhibition rate. […]

CCc1cc(Nc2ncc(Cl)c(Nc3ccc(C)c(C)c3P(C)(C)=O)n2)c(OC)cc1N1CC2(CCN(C3CC3)CC2)C1
IC50: 0.67 nM
